The text below walks through data of the DeepSol protein solubility set.

The nature of this series: soluble on expression in E. coli; label from the status in PepcDB or PDB records.
As for “GSHSLKYFHTSVSRPGRGEPRFISVGYVDDTQFVRFDNDAASPRMVPRAPWMEQEGSEYWDRETRSARDTAQIFRVNLRTLRGYYNQSEAGSHTLQWMHGCELGPDRRFLRGYEQFAYDGKDYLTLNEDLRSWTAVDTAAQISEQKSNDASEAEHQRAYLEDTCVEWLHKYLEKGKETLLHLEPPKTHVTHHPISDHEATLRCWALGFYPAEITLTWQQDGEGHTQDTELVETRPAGDGTFQKWAAVVVPSGEEQRYTCHVQHEGLPEPVTLRWKP”, the “soluble on expression in E. coli” value is listed as “soluble”.
Take “MDNKKRLAYAIIQFLHDQLRHGGLSSDAQESLEVAIQCLETAFGVTVEDSDLALPQTLPEIFEAAATGKEMPQDLRSPARTPPSEEDSAEAERLKTEGNEQMKVENFEAAVHFYGKAIELNPANAVYFCNRAAAYSKLGNYAGAVQDCERAICIDPAYSKAYGRMGLALSSLNKHVEAVAYYKKALELDPDNETYKSNLKIAELKLREAPSPTGGVGSFDIAGLLNNPGFMSMASNLMNNPQIQQLMSGMISGGNNPLGTPGTSPSQNDLASLIQAGQQFAQQMQQQNPELIEQLRSQIRSRTPSASNDDQQELEHHHHHH”: the “soluble on expression in E. coli” value is listed as “soluble”.
For the sequence “MGHHHHHHSHMAEQLAWLRVLRLDKRSVVKHIGDLLQHRQSLVRSAFRDGTAEVETREKEPPGWGQGQGEGEVGNNSLGLPQGKRPASPALLLPPCMLKSPKRICPVPPVSTVTGDENISDSEIEQYLRTPQEVRDFQRAQAARQAATSVPNPP”, the “soluble on expression in E. coli” value is reported as “not soluble”.
